In patent EP4847514A1, “PYRIMIDINE POLYCYCLIC DERIVATIVE INHIBITOR, PREPARATION METHOD THEREFOR AND USE THEREOF” (dated 2026):

What was measured:
[1] = system: human pancreatic cancer cell line (HPAC); assay: Anti-tumour efficacy in mouse transplanted tumour model of human pancreatic cancer cell line (HPAC); details: BALB/c nude mice, 100 mpk PO BID; for Tumour volume (Mean ± SD) Day 0: Day 0 (baseline)
Source text: 1. Experimental objective: 8-10 week old female conventional immunodeficient mice (BALB/c nude) with a body weight of 18 g-22 g were used as experimental animals, and a transplanted tumour model of human pancreatic cancer cell line (HPAC) was used to conduct in vivo efficacy experiments to test the anti-tumour results of the example compounds after gavage administration. 2. Experimental instruments and reagents: • 2.1 Instruments: Ultra-clean workbench (BSC-1300II A2, Shanghai Boxun Industrial Co., Ltd. Medical Equipment Factory); CO2 incubator (Thermo-311, Thermo); centrifuge (Centrifuge 5720R, Eppendorf); automated cell counter (Countess II, Life Technologies); Pipette (10-20 µL, Eppendorf); Microscope (Ts 2, Nikon); vernier calliper (CD-6"AX, Mitutoyo, Japan); cell culture flask (T25/T75/T225, Corning); Thermostat water tank (HWS12, Shanghai Yiheng Science). • 2.2 Reagents: DMEM/F12 (11330-032, Gibco); foetal bovine serum (FBS) (10091-148, Gibco); Insulin (51500-056, Gibco); EGF (PHG0311, Gibco); 0.25% trypsin (25200-056, Gibco); phosphate buffer solution (PBS) (10010-023, Gibco); Matrigel (356234, Corning); Gln (25030-081, Gibco). 3. Experimental methods • 3.1 Experimental compounds: The example compounds of the present disclosure, made in house. • 3.2 Compound formulation: A given amount of the example compound was weighed, and an appropriate amount of 10% vehicle (Solutol HS15) was added. The mixture was stirred on a magnetic stirrer for 0.5 h to formulate a homogeneous suspension at the desired concentration. • 3.3 Cell culture and passaging: Human pancreatic cancer cell line (HPAC) was obtained from COBIOER BIOSCIENCES CO., LTD, cultured on DMEM/F12 medium (Gibco, 11330-032) supplemented with 10% foetal calf serum (Gibco, 10091-148), 1×Insulin (51500-056, Gibco) and 10 ng/ml of EGF (PHG0311, Gibco) and observed under a microscope (Thermo Fisher, 311). The cells were routinely passaged when the cells reached 80%-90% confluence in the culture flask. The passaged cells were cultured in a 37°C, 5% CO2 incubator (Thermo Fisher, 311). • 3.4 Cell seeding, grouping and administration: Under aseptic conditions, human pancreatic cancer cells (HPAC) in the logarithmic growth phase were harvested using 0.25% trypsin-EDTA (Gibco, 25200-056), washed and resuspended with phosphate buffer. The cell suspension was mixed with Matrigel (Coming, 356234) at a 1:1 ratio and implanted subcutaneously into the right anterior dorsal region of immunodeficient mice (BALB/c nude). Each mouse was inoculated with 3*10^6 cells in a volume of 100 microliters (µL). After inoculation, when the tumour volume reached 100-200 mm^3, the mice were evenly randomized into 5 groups based on the tumour size, with 5 mice per group, for in vivo efficacy experiments. The negative control group was the vehicle group. Mode of administration: The example compounds were administered orally. The dosage and administration period are as shown in the table. • 3.5 Tumour measurement and tumour inhibition rate calculation: Twice a week, the long and short diameters of the tumour were measured using a vernier calliper, and the tumour volume (mm^3) was calculated using the formula: V = 0.5*D*d*d, in which D and d are the long and short diameters of the tumour, respectively. The anti-tumour efficacy was determined by dividing the average increase in tumour volume of compound-treated animals by the average increase in tumour volume of untreated animals. The calculation formulas for tumour inhibition rate: when there is no tumour regression, TGI(%) = 100-[(Vt-V0) administration group/(Vt-V0) vehicle control group]*100%; and when tumour regression occurs, TGI(%)=[1-(Vt-V0) administration group/V0 vehicle control group]*100%. All animals were euthanized after the experiment. 4. Experimental results and conclusions Table 4: Efficacy parameters of the compounds in mice with transplanted tumours

GP2D cells = assay: Inhibition of proliferation of KRAS G12D mutant tumour cell line (CellTiter-Glo, about 72 h); details: read-out: GP2D IC50
Method: (§1) 1. Experimental objective: The inhibition activity of the example compounds on the proliferation of 5 KRAS G12D mutant cell lines SNU-1, HPAF-II, Panc0403, AsPC-1 and GP2D was determined. 2. Experimental instruments: • 2.1 Instruments: Microplate reader (BioTek Synergy H1); Pipette (Eppendorf & Rainin). • 2.2 Reagents: HPAF-II, PANC0403, AsPC-1 and GP2D were purchased from COBIOER BIOSCIENCES CO., LTD; SNU-1 was purchased from the cell bank of Chinese Academy of Sciences, Cell Titer-Glo was purchased from Promega, with a catalogue number of G7573; RPMI 1640 was purchased from Gibco, with a catalogue number of 22400089; DMEM was purchased from Gibco, with a catalogue number of 11995065; FBS was purchased from Gibco, with a catalogue number of 10091148; PBS was purchased from Gibco, with a catalogue number of 10010023; trypsin was purchased from Gibco, with a catalogue number of 25200056; cell culture plates were purchased from Corning Company, with a catalogue number of 3610. 3. Experimental methods: When SNU-1, HPAF-II, Panc0403, AsPC-1 or GP2D cells were cultured to the appropriate confluence, the SNU-1, HPAF-II, Panc0403, AsPC-1 or GP2D cells were collected. The cells were adjusted to the appropriate cell density using complete culture medium, the cell suspension was plated onto a 96-well plate at 90 µL per well, and the plate was placed in the incubator at 37°C and 5% CO2 for adherent culture overnight. Solutions of the compound with different concentrations were formulated using DMSO and culture medium. A vehicle control was set up. The solutions of the compound were added to the 96-well plate at 10 µL per well, and the plate was placed in the incubator at 37°C and 5% CO2 for further culture for about 72 h. Then CellTiter-Glo solution was added, and the obtained mixture was shaken and mixed evenly, incubated in the dark for 10 min, and read with a BioTek Synergy H1 microplate reader. 4. Experimental data processing method: The inhibition rate was calculated using the luminescence signal values, and the concentrations along with the inhibition rates were subjected to non-linear regression curve fitting using Graphpad Prism software to obtain the IC50 values. 5. Experimental results: Table 1: Inhibition activity of the example compounds of the present invention on the proliferation of GP2D and AsPC-1 cells

AsPC-1 cells = assay: as above; details: read-out: AsPC-1 IC50
Method: as §1

[2] = Pharmacokinetic determination in mice (plasma, LCMS/MS); details: Balb/c mice, male, PO 30 mg/kg
Source text: • 1. Study objective: Balb/c mice were used as test animals to study the pharmacokinetic behaviour of the compounds in mice (plasma) after oral administration. • 2. Experimental protocol • 2.1 Test drugs: The example compounds of the present invention, made in house. • 2.2 Experimental animals: Balb/c mice, male, purchased from Shanghai Jiesijie Experimental Animal Co., Ltd., animal production license number (SCXK (Shanghai) 2013-0006 N0.311620400001794). • 2.3 Drug formulation: Formulation of drug for oral administration: 10% Captisol in 50 mM citrate buffer pH 5.0
(§2) Formulation of 50 mM citric acid: 4.8 g of citric acid was weighed into a 1000 ml glass bottle, ultrapure water was added to 300 ml, and the mixture was magnetically stirred until it was completely dissolved, additional ultrapure water was then added to 500 ml to formulate 50 mM citric acid.
(§3) Formulation of a solution containing 50 mM citric acid (10% Captisol, PH = 5): 50 g of Captisol powder was weighed and added to a 1000 ml glass bottle, 300 ml of 50 mM citric acid was added, and the mixture was magnetically stirred until it was completely dissolved, then additional citric acid was added to 500 ml, and the PH was adjusted to 5 using 10 M NaOH.
The example compounds were weighed and added to a 4-mL glass bottle separately, 2.4 mL of the solution was added and the mixture was ultrasonicated for 10 min to obtain a colourless clear solution with a concentration of 3 mg/mL.
Formulation of drug for intravenous administration: 5% DMSO + 10% Solutol HS15 + 85% PBS
(§4) The example compounds were weighed, and 5% DMSO was added based on the total administration volume; the mixture was vortexed and ultrasonicated for 2 min to ensure complete dissolution; then, 10% Solutol HS15 was added, and the mixture was vortexed and ultrasonicated for 2 min to ensure complete dissolution; finally, 85% PBS was added, and the mixture was vortexed and ultrasonicated for 5 min, and filtered through a 0.22 um filter membrane to obtain a colourless and transparent clear solution with a concentration of 0.2 mg/mL.
2.4 Administration: 3 Balb/c mice, male, were fasted overnight and then respectively administered PO at a dose of 30 mg/kg and a volume of 10 mL/kg. 3 Balb/C mice, male; were administered intravenously (IV) at a dose of 1 mg/kg with an administration volume of 5 mL/kg.
2.5 Sample collection: 0.04 mL of blood was collected from the orbit before administration and at 0.25 h, 0.5 h, 1 h, 2 h, 4 h, 6 h, 8 h, and 24 h after administration and placed in an EDTA-2K test tube, and the test tube was centrifuged at 6000 rpm for 6 min at 4°C to separate the plasma, which was stored at -20°C; The animals were fed 4 h after administration.
3 Determination results: The final determination results obtained by applying the LCMS/MS method are shown in the table below: Table 2: Pharmacokinetic parameters of the compounds administered orally in mice

[3] = Pharmacokinetic determination in rats (plasma, LCMS/MS); details: SD rats, male, PO 30 mg/kg
Source text: • 1. Study objective: SD rats were used as test animals to study the pharmacokinetic behaviour of the example compounds in rats (plasma) after oral administration. • 2. Experimental protocol • 2.1 Test drugs: The example compounds of the present disclosure, made in house. • 2.2 Experimental animals: 3 SD rats/group, male, from Shanghai Jiesijie Laboratory Animal Co., Ltd., animal production license number (SCXK (Shanghai) 2013-0006 N0.311620400001794). • 2.3 Drug formulation: Formulation of drug for oral administration: 10% Captisol in 50 mM citrate buffer pH 5.0
as §2, §3
The example compounds were weighed and dissolved in the solution and the mixture was shaken well and ultrasonicated for 15 min to obtain a colourless clear solution with a concentration of 3 mg/mL. Formulation of drug for intravenous administration: 5% DMSO + 10% Solutol HS15 + 85% PBS
as §4
2.4 Administration: 3 SD rats/group, male; were fasted overnight and then respectively administered PO at a dose of 30 mg/kg and a volume of 10 mL/kg. 3 SD rats/group, male; were administered intravenously (IV) at a dose of 1 mg/kg with an administration volume of 5 mL/kg.
2.5 Sample collection: 0.2 mL of blood was collected from the jugular vein before administration and at 0.25 h, 0.5 h, 1.0 h, 2.0 h, 4.0 h, 6.0 h, 8.0 h, and 24.0 h after administration and placed in an EDTA-2K test tube, and the test tube was centrifuged at 6000 rpm for 6 min at 4°C to separate the plasma, which was stored at -20°C. The animals were fed 4 h after administration. […]

| SMILES | Tumour volume (Mean ± SD) Day 0 [1] | Tumour volume (Mean ± SD) Day 21 [1] | IC50 (GP2D cells) | IC50 (AsPC-1 cells) | AUC0-∞ [2] | Cmax [2] | T1/2 [2] | Tmax [2] | AUC0-∞ [3] | Cmax [3] | T1/2 [3] | Tmax [3] |
| --- | --- | --- | --- | --- | --- | --- | --- | --- | --- | --- | --- | --- |
| C#Cc1c(F)ccc2cc(O)cc(-c3nc4c5c(nc(OCC6(CN7CCC(=CF)CC7)CC6)nc5c3F)N3C[C@H]5CC[C@H](N5)[C@H]3[C@H](C)O4)c12 | 209 mm^3 | 231 mm^3 |  |  |  |  |  |  |  |  |  |  |
| [2H]C([2H])([2H])[C@@H]1Oc2nc(-c3cc(O)cc4ccc(F)c(C#C)c34)c(F)c3nc(OCC4(C[N+]5([O-])CCC(=C(F)F)CC5)CC4)nc(c23)N2C[C@H]3CC[C@H](N3)[C@@H]12 (some centres unmarked) | 208 mm^3 | 308 mm^3 | 0.62 nM | 25 nM |  |  |  |  |  |  |  |  |
| C#Cc1c(F)ccc2cc(O)cc(-c3nc4c5c(nc(OCC6(CN7CCC(=C(F)F)CC7)CC6)nc5c3F)N3C[C@H]5CC[C@@H]([C@H]3[C@H](C)O4)N5O)c12 |  |  |  |  | 1077 ng·h/mL | 270 ng/mL | 1.0 h | 2.0 h |  |  |  |  |
| [2H]C([2H])([2H])[C@@H]1Oc2nc(-c3cc(O)cc4ccc(F)c(C#C)c34)c(F)c3nc(OCC4(CN5CCC(=C(F)F)CC5)CC4)nc(c23)N2C[C@H]3CC[C@H](N3)[C@@H]12 | 209 mm^3 | 131 mm^3 | 0.94 nM |  |  |  |  |  |  |  |  |  |
| C#Cc1c(F)ccc2cc(O)cc(-c3nc4c5c(nc(OCC6(C[N+]7([O-])CCC(=C(F)F)CC7)CC6)nc5c3F)N3C[C@H]5CC[C@H](N5)[C@H]3[C@H](C)O4)c12 (some centres unmarked) |  |  | 0.71 nM | 35 nM | 1179 ng·h/mL | 236 ng/mL | 8.3 h | 2.0 h | 3159 ng·h/mL | 409 ng/mL | 6.5 h | 4.0 h |
